System: cell surface Apo2L/TRAIL on NK cells
Assay: Flow cytometry of cell surface Apo2L/TRAIL on purified NK cells
Type: cell-based, human
Settings: 5C2-Alexa 488 staining
Method: Cell surface Apo2L/TRAIL on purified NK cells treated with poly(I:C), R-848 or hIL-2 (30 ng/ml, BD Biosciences) was also analyzed by cytometry. Isotype control (IgG2a, Sigma) and anti-Apo2L/TRAIL antibody (5C2) were labeled with Alexa 488 (Molecular Probes). 5×10^5 cells were incubated with 2 μg of human IgG to block FcRs and 1 μg of the directly labeled mAbs at 4° C. for 45 minutes, followed by 2 washes. Stained cells were analyzed using a FACScan cytometer (Becton Dickenson) and Cellquest software.

Substance: IL-2: hIL-2 (30 ng/ml, BD Biosciences), positive control
- Cell surface expression of Apo2L/TRAIL on NK cells: increases the expression
